From paper PMC12974487, “Inhibition of FicD-mediated AMPylation and deAMPylation by isoprenoid diphosphates” (Proceedings of the National Academy of Sciences of the …, 2026)

Target: T1, FicD^L258D (Homo sapiens, UniProt Q9BVA6, L258D)
T1 construct: soluble ER luminal domain (residues 105 to 458) of wild-type human FicD and three mutants; 6xHis-Sumo (N, cleaved yes); made in house; host or cells: Rosetta(DE3) E. coli
T1 sequence (Q9BVA6 105-458 L258D): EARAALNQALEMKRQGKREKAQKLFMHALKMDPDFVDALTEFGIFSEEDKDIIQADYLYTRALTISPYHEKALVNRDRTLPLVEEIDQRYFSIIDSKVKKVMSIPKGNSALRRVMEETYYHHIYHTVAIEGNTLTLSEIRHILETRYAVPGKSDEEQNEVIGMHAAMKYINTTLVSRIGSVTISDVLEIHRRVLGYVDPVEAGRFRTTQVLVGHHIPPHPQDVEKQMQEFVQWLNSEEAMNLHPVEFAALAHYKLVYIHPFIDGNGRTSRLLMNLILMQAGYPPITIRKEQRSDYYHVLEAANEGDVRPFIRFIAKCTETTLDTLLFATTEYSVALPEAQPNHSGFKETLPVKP
Test: Differential scanning fluorimetry (DSF) thermal shift with FicD^L258D
Format: binding
Details: 5 mM MgCl2, read-out: EC50 of DSF dose-response (ΔTm)
Description: Differential Scanning Fluorimetry
Thermal shift assays were performed in Biorad CfX384 Touch Real-Time PCR Detection System
Reactions contained 50mM HEPES pH 7.4, 200mM NaCl,
200mM KCl, 200uM DTT, 5X Invitrogen Sypro Orange (Cat no. S6650), 8-9μM protein, and
indicated nucleotide, cofactor, or small molecule in a total volume of 20uL. For every experiment
‘no protein’ controls were also included with the same reaction conditions. All reactions were […]

deoxyadenosine diphosphate [dADP] was tested, and the pEC50 was 3.55.

pEC50: −log10 of the molar value.
